What was measured:
[1] = Phase I single dose study, pharmacokinetics in subjects with different degrees of impaired renal function; settings: single oral 200 μg Cebranopadol dose; for AUC0-t / AUC0-∞ / Cmax / Tmax / AUClast: mean
[2] = Phase I single dose study, safety (adverse events) in subjects with different degrees of impaired renal function
[3] = Phase I single dose study, pharmacokinetics in subjects with normal and impaired hepatic function; settings: mean, single 200 μg Cebranopadol dose
[4] = Phase I single dose study, safety (treatment emergent adverse events) in subjects with normal and impaired hepatic function; settings: single 200 μg dose
[5] = Phase IIb trial, treatment emergent adverse events in subjects with normal, mildly and moderately impaired renal function
[6] = final data, mild renal impairment
[7] = final data, moderate renal impairment
[8] = final data, no renal impairment
[9] = final data, severe renal impairment
[10] = preliminary data, mild renal impairment
[11] = preliminary data, moderate renal impairment
[12] = preliminary data, no renal impairment
[13] = preliminary data, severe renal impairment
[14] = final data, all groups, out of 34 subjects
[15] = final data, mild renal impairment, single 200 μg dose
[16] = final data, moderate renal impairment, single 200 μg dose
[17] = final data, no renal impairment, single 200 μg dose
[18] = final data, severe renal impairment, single 200 μg dose
[19] = preliminary data, all groups, out of 33 subjects
[20] = preliminary data, mild renal impairment, single 200 μg dose
[21] = preliminary data, moderate renal impairment, single 200 μg dose
[22] = preliminary data, no renal impairment, single 200 μg dose
[23] = preliminary data, out of 30 adverse events
[24] = preliminary data, severe renal impairment, single 200 μg dose
[25] = preliminary data, total of all groups
[26] = mild hepatic impairment (Child-Pugh)
[27] = moderate hepatic impairment (Child-Pugh)
[28] = no hepatic impairment (normal hepatic function)
[29] = severe hepatic impairment (Child-Pugh)
[30] = mild renal impairment, 200 μg oral
[31] = mild renal impairment, 400 μg oral
[32] = mild renal impairment, 600 μg oral
[33] = mild renal impairment, Cebranopadol overall
[34] = moderate renal impairment, 200 μg
[35] = moderate renal impairment, 200 μg oral
[36] = moderate renal impairment, 400 μg
[37] = moderate renal impairment, 400 μg oral
[38] = moderate renal impairment, 600 μg
[39] = moderate renal impairment, 600 μg oral
[40] = moderate renal impairment, overall
[41] = normal renal function, 200 μg oral
[42] = normal renal function, 400 μg oral
[43] = normal renal function, 600 μg oral
[44] = normal renal function, Cebranopadol overall

## CN(C)[C@]1(c2ccccc2)CC[C@]2(CC1)OCCc1c3cc(F)ccc3[nH]c12
[1]; [6]
  AUC0-t: 3.132 ng·h/mL
  AUC0-∞: 3.229 ng·h/mL
  Cmax: 0.144 ng/mL
  Tmax: 5.2 h
[1]; [7]
  AUC0-t: 3.122 ng·h/mL
  AUC0-∞: 3.893 ng·h/mL
  Cmax: 0.128 ng/mL
  Tmax: 4.6 h
[1]; [8]
  AUC0-t: 2.65 ng·h/mL
  AUC0-∞: 2.728 ng·h/mL
  Cmax: 0.125 ng/mL
  Tmax: 4.4 h
[1]; [9]
  AUC0-t: 2.946 ng·h/mL
  AUC0-∞: 3.533 ng·h/mL
  Cmax: 0.131 ng/mL
  Tmax: 5.3 h
[1]; [10]
  AUClast: 3.18 ng·h/mL
  Cmax: 0.144 ng/mL
[1]; [11]
  AUClast: 3.12 ng·h/mL
  Cmax: 0.128 ng/mL
[1]; [12]
  AUClast: 2.65 ng·h/mL
  Cmax: 0.125 ng/mL
[1]; [13]
  AUClast: 2.95 ng·h/mL
  Cmax: 0.131 ng/mL
[1]
  trend in main pharmacokinetic parameters with increasing degree of renal impairment: no indication for any trend
[2]; all groups, single 200 μg dose
  adverse events not reported as related to Cebranopadol: 3
  outcome of adverse events: All events were resolved
  severe adverse events: No severe adverse event was reported
[2]; all renal function groups, single 200 μg dose
  deaths or serious adverse events: No deaths or serious adverse events were reported
[2]; final data, all groups
  moderate adverse events reported: 6
  total adverse events: 30
[2]; [14]
  subjects reporting adverse events (number): 13
  subjects reporting adverse events (percent): 38.2%
[2]; [15]
  number of events: 10
  number of events (percent of the total 30 adverse events): 33.3%
  subjects with adverse events (number): 5
  subjects with adverse events (percent of group): 55.6%
[2]; [16]
  number of events: 9
  number of events (percent of the total 30 adverse events): 30.0%
  subjects with adverse events (number): 3
  subjects with adverse events (percent of group): 33.3%
[2]; [17]
  number of events: 4
  number of events (percent of the total 30 adverse events): 13.3%
  subjects with adverse events (number): 3
  subjects with adverse events (percent of group): 37.5%
[2]; [18]
  number of events: 7
  number of events (percent of the total 30 adverse events): 23.3%
  subjects with adverse events (number): 2
  subjects with adverse events (percent of group): 25.0%
[2]; preliminary data, all groups
  moderate adverse events reported: 7
  total adverse events: 30
[2]; [19]
  subjects reporting adverse events (number): 14
  subjects reporting adverse events (percent): 42.4%
[2]; [10]
  unexpected adverse events: increased blood pressure: 1
  unexpected adverse events: low back pain: 2
  unexpected adverse events: total: 3
[2]; [20]
  number of events: 10
  number of events (percent of the total 30 adverse events): 33.3%
  subjects with adverse events (number): 5
  subjects with adverse events (percent of group): 62.5%
[2]; [11]
  unexpected adverse events: headache: 2
  unexpected adverse events: orbital pain: 1
  unexpected adverse events: total: 3
[2]; [21]
  number of events: 9
  number of events (percent of the total 30 adverse events): 30.0%
  subjects with adverse events (number): 3
  subjects with adverse events (percent of group): 33.3%
[2]; [12]
  unexpected adverse events: headache: 1
  unexpected adverse events: increased blood pressure: 1
  unexpected adverse events: increased frequency of urination: 2
  unexpected adverse events: total: 4
[2]; [22]
  number of events: 4
  number of events (percent of the total 30 adverse events): 13.3%
  subjects with adverse events (number): 3
  subjects with adverse events (percent of group): 37.5%
[2]; [23]
  expected adverse events (percent of adverse events): 63.3%
  expected adverse events such as dizziness, nausea, vomiting, and fatigue (number): 19
  unexpected adverse events (number): 11
  unexpected adverse events (percent of adverse events): 36.7%
[2]; [13]
  unexpected adverse events: electrical shock/soft tissue injury: 1
  unexpected adverse events: total: 1
[2]; [24]
  number of events: 7
  number of events (percent of the total 30 adverse events): 23.3%
  subjects with adverse events (number): 2
  subjects with adverse events (percent of group): 25.0%
[2]; [25]
  unexpected adverse events: electrical shock/soft tissue injury: 1
  unexpected adverse events: headache: 3
  unexpected adverse events: increased blood pressure: 2
  unexpected adverse events: increased frequency of urination: 2
  unexpected adverse events: low back pain: 2
  unexpected adverse events: orbital pain: 1
  unexpected adverse events: total: 11
[2]; single dose 200 μg, subjects with different degrees of renal impairment
  safety and tolerability: safe and well tolerated
[3]; [26]
  AUC0-t: 1.564 ng·h/mL
  AUC0-∞: 1.912 ng·h/mL
  Cmax: 0.074 ng/mL
  Tmax: 5.5 h
[3]; [27]
  AUC0-t: 2.38 ng·h/mL
  AUC0-∞: 3.255 ng·h/mL
  Cmax: 0.095 ng/mL
  Tmax: 4.8 h
[3]; [28]
  AUC0-t: 1.7 ng·h/mL
  AUC0-∞: 2.056 ng·h/mL
  Cmax: 0.081 ng/mL
  Tmax: 5.8 h
[3]; [29]
  AUC0-t: 1.962 ng·h/mL
  AUC0-∞: 2.863 ng·h/mL
  Cmax: 0.091 ng/mL
  Tmax: 2.9 h
[4]; all hepatic function groups
  discontinuation due to treatment emergent adverse events: No subject discontinued the trial
  serious adverse events and deaths: Neither serious adverse events nor deaths were observed
[4]; mild hepatic impairment
  no of subjects with at least one treatment emergent adverse event: 2
  no of subjects with headache: 2
  no of subjects with nausea: 0
[4]; moderate hepatic impairment
  no of subjects with at least one treatment emergent adverse event: 4
  no of subjects with headache: 1
  no of subjects with nausea: 1
[4]; no hepatic impairment
  no of subjects with at least one treatment emergent adverse event: 2
  no of subjects with headache: 1
  no of subjects with nausea: 0
[4]; severe hepatic impairment
  no of subjects with at least one treatment emergent adverse event: 4
  no of subjects with headache: 1
  no of subjects with nausea: 1
[4]; subjects with hepatic impairment
  tolerability: well tolerated
[5]; [30]
  No. of subjects with TEAE: 30
  subjects with TEAE (percent): (85.7%)
[5]; [31]
  No. of subjects with TEAE: 38
  subjects with TEAE (percent): (88.4%)
[5]; [32]
  No. of subjects with TEAE: 37
  subjects with TEAE (percent): (90.2%)
[5]; [33]
  No. of subjects with TEAE: 105
  subjects with TEAE (percent): (88.2%)
[5]; moderate renal impairment
  treatment emergent adverse events related to the underlying renal impairment: 2
[5]; [34]
  cases of disturbance attention: 0
  cases of head discomfort: 1
  cases of pre-renal failure: 0
  cases of urinary tract infection: 1
[5]; [35]
  No. of subjects with TEAE: 5
  subjects with TEAE (percent): (100%)
[5]; [36]
  cases of disturbance attention: 0
  cases of head discomfort: 0
  cases of pre-renal failure: 0
  cases of urinary tract infection: 0
[5]; [37]
  No. of subjects with TEAE: 1
  subjects with TEAE (percent): (100%)
[5]; [38]
  cases of disturbance attention: 1
  cases of head discomfort: 0
  cases of pre-renal failure: 1
  cases of urinary tract infection: 0
[5]; [39]
  No. of subjects with TEAE: 2
  subjects with TEAE (percent): (100%)
[5]; moderate renal impairment, Cebranopadol overall
  No. of subjects with TEAE: 8
[5]; [40]
  cases of disturbance attention: 1
  cases of head discomfort: 1
  cases of pre-renal failure: 1
  cases of urinary tract infection: 1
[5]; multiple doses up to 600 μg/day, mild and moderate renal impairment
  safety: safe
[5]; [41]
  No. of subjects with TEAE: 73
  subjects with TEAE (percent): (81.1%)
[5]; [42]
  No. of subjects with TEAE: 68
  subjects with TEAE (percent): (81.9%)
[5]; [43]
  No. of subjects with TEAE: 76
  subjects with TEAE (percent): (89.4%)
[5]; [44]
  No. of subjects with TEAE: 217
  subjects with TEAE (percent): (84.1%)
[5]; overall, mild renal impairment
  TEAE constipation: 19.3%
  TEAE dizziness: 31.9%
  TEAE dry mouth: 5.9%
  TEAE fatigue: 16.8%
  TEAE hyperhidrosis: 5.0%
  TEAE nausea: 31.9%
  TEAE somnolence: 19.3%
  TEAE vomiting: 21.0%
[5]; overall, normal renal function
  TEAE constipation: 14.7%
  TEAE dizziness: 37.6%
  TEAE dry mouth: 1.9%
  TEAE fatigue: 13.6%
  TEAE hyperhidrosis: 12.0%
  TEAE nausea: 27.9%
  TEAE somnolence: 17.4%
  TEAE vomiting: 16.3%
